Assay results published in patent publication US6716449B2 (priority 2000, dated 2004).

Conditions: in comparison to a 15 mg dose of hydrocodone

SMILES: CN1CC[C@]23c4c5ccc(O)c4O[C@H]2C(=O)CC[C@H]3[C@H]1C5 [Hydromorphone]
- Equianalgesic dose, Calculated Dose: 3.375 mg
